# Measurements published in PubChem BioAssay AID1996.
# Settings: buffer; pH 7.4; 200.0 µM
row,solubility kinetic [µg/mL],SMILES
1,> 36.6,O=C(O)CCCC[C@@H]1SC[C@@H]2NC(=O)N[C@@H]21
2,4.6,Cc1ccc(C(=O)Nc2nc(-c3ccccn3)cs2)s1
